The entries are a selection whose mix differs from that of the whole data set. Active and inactive are the calls of the source.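 Rule for the calls: active = inhibition or corrected inhibition above about 18%, plus a signal ratio from 0.5 to 1.5 (limit read from the data, passing the limit was not always enough); inactive = the rest.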

By UniProt entry, the sequences of proteins in these tests, tags left out.
UniProt O14786, whole entry: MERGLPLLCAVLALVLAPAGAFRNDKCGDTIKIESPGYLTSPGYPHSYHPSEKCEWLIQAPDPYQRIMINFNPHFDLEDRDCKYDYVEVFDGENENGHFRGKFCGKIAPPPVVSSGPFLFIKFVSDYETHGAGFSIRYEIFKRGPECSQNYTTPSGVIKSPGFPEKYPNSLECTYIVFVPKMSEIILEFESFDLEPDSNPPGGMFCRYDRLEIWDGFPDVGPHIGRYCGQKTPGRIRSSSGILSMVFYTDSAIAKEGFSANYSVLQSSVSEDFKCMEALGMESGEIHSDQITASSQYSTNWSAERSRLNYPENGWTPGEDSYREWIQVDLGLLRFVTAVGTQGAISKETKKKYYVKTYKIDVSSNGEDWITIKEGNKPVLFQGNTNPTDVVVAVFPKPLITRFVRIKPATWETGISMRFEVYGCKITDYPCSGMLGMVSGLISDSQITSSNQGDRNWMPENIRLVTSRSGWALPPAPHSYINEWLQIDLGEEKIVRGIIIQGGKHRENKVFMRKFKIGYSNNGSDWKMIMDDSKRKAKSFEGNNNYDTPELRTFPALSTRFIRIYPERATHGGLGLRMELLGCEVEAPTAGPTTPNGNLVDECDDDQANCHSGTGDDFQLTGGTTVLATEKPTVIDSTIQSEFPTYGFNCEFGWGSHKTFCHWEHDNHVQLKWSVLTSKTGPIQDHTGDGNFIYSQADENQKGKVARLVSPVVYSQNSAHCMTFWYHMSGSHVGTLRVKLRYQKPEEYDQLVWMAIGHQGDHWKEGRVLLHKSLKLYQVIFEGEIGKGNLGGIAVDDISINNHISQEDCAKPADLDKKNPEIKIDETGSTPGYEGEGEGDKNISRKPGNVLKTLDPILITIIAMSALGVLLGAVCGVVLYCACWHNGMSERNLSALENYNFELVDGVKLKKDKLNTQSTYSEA

The results in this text go back to PubChem BioAssay AID602438 (Sanford-Burnham Center for Chemical Genomics, 2012).

The assay deals with Neuropilin-1 (Homo sapiens) (UniProt O14786). In words: modulators of CendR peptide binding to NRP-1, primary screen, biochemical, fluorescence polarization, uHTS (AID 602438). The note with it: FAM-RPARPAR peptide binding to NRP-1, fluorescence polarization; at 25 µM; active compounds read high. A general note: Fluorescence polarisation rises when a labelled molecule tumbles more slowly, as on binding a larger partner.
The term inhibition denotes the drop in the measured response relative to a control, in per cent. `O=C(NCC1(N2CCCCC2)CCCCC1)c1cncc(Br)c1`: the inhibition was inactive: 10.6%.

Regarding `CN1CCC(Nc2cccc(F)c2)CC1`, the inhibition is inactive: -1.8%.

For `Cc1ccc(C(=O)NCC2(N(C)C)CCCCC2)o1`, the inhibition was inactive: 7.6%.

With `CCCOc1ccc(C(=O)NCC2(N(C)C)CCCCC2)cc1OC`, the inhibition is inactive: -4.8%.

For the compound `COc1ccc(C(c2nnnn2C2CCCC2)N2CCC(n3c(=O)[nH]c4ccccc43)CC2)cc1` (configuration not stated), the inhibition was inactive: 16.2%.

In the case of `COc1ccc(CN(CCCl)CCCl)cc1Cl`, the inhibition was inactive: -11.7%.

Consider `CN(C)c1cccc(C(=O)NCC2(N3CCCCC3)CCCCC2)c1`, for which the inhibition is inactive: 1.4%.

Take `CCCCn1nnnc1C(c1ccccc1OC(F)(F)F)N1CCC(n2c(=O)[nH]c3ccccc32)CC1` (configuration not stated): the inhibition is inactive: 6.4%.

In the case of `CC(C)c1ccc(NC2CCN(C(=O)OC(C)(C)C)CC2)cc1`, the inhibition was inactive: 1.2%.

Take `CCCCn1nnnc1C(c1ccnc2ccccc12)N1CCC(n2c(=O)[nH]c3ccccc32)CC1` (configuration not stated): the inhibition is inactive: 1.9%.

Take `COc1cc(OC)c(C(=O)NCC2(N(C)C)CCCCC2)cc1OC`: the inhibition is inactive: -1.3%.

On to `CCC(c1nnnn1C(C)(C)C)N1CCC(n2c(=O)[nH]c3ccccc32)CC1` (configuration not stated), for which the inhibition is inactive: -2.8%.

As for `O=C(NCC1(N2CCOCC2)CCCCC1)c1cc(F)c(F)cc1Cl`, the inhibition was inactive: -3.3%.

As to `O=C(NCC1(N2CCOCC2)CCCCC1)c1cc2ccccc2o1`, the inhibition is inactive: -4.8%.

`O=c1[nH]c2ccccc2n1C1CCN(C(c2ccccc2OC(F)(F)F)c2nnnn2C2CCCCC2)CC1` (configuration not stated): the inhibition was inactive: 5.7%.

In the case of `O=C(NCC1(N2CCCCC2)CCCCC1)c1ccc(Cl)nc1`, the inhibition is inactive: 1.2%.

As for `Cc1cc(C)cc(N(C(=O)c2ccccc2)C2CCN(C(=O)OC(C)(C)C)CC2)c1`, the inhibition is inactive: -11.2%.

Turning to `CCOC(=O)N1CCC(Nc2ccc(OC)cc2)CC1`, the inhibition is inactive: 11.6%.

As for `CCCCn1nnnc1C(c1ccc(OC)cc1)N1CCC(n2c(=O)[nH]c3ccccc32)CC1` (configuration not stated), the inhibition was inactive: 15.9%.

Consider `O=C(OC1CN2CCC1CC2)C1c2ccccc2Oc2ccccc21` (configuration not stated), for which the inhibition was inactive: 15.4%.

In the case of `O=c1[nH]c2ccccc2n1C1CCN(C(c2cc3ccccc3o2)c2nnnn2C2CCCCC2)CC1` (configuration not stated), the inhibition is inactive: 1.5%.

Turning to `O=C(NCC1(N2CCCCC2)CCCCC1)c1ccc(Cl)s1`, the inhibition was inactive: 6.5%.

`N#CC1(Nc2ccccc2)CCN(Cc2ccccc2)CC1`: the inhibition is inactive: 8.7%.

For the compound `COc1ccc(Cl)cc1C(=O)NCC1(N2CCOCC2)CCCCC1`, the inhibition is inactive: 7.6%.

Consider `O=C(NCC1(N2CCCCC2)CCCCC1)c1ccc(=O)[nH]c1`, for which the inhibition is inactive: -12.3%.

As to `CCCCn1nnnc1C(c1cccs1)N1CCC(n2c(=O)[nH]c3ccccc32)CC1` (configuration not stated), the inhibition was inactive: 5%.

Turning to `CCCCn1nnnc1C(CC)N1CCC(n2c(=O)[nH]c3ccccc32)CC1` (configuration not stated), the inhibition is inactive: 5.9%.

Turning to `O=C(NCC1(N2CCCCC2)CCCCC1)c1cccs1`, the inhibition was inactive: -11%.

For the compound `COc1ccc(C(=O)NCC2(N3CCCCC3)CCCCC2)cc1`, the inhibition is inactive: -11.8%.

Regarding `CCC(c1nnnn1C1CCCC1)N1CCC(n2c(=O)[nH]c3ccccc32)CC1` (configuration not stated), the inhibition is inactive: 2.3%.

As to `COc1ccc(C(=O)NCC2(N3CCCCC3)CCCCC2)c(OC)c1OC`, the inhibition was inactive: -10%.

As for `CC(C)(C)OC(=O)N1CCC(N(C(=O)c2ccccc2)c2ccc(F)cc2)CC1`, the inhibition was inactive: 1.7%.

In the case of `CSc1ccccc1C(=O)NCC1(N2CCCCC2)CCCCC1`, the inhibition is inactive: -7.5%.

Regarding `Cc1cccc(NC2(C#N)CCN(Cc3ccccc3)CC2)c1`, the inhibition was inactive: -1.8%.

As to `O=c1[nH]c2ccccc2n1C1CCN(C(c2ccccc2)c2nnnn2C2CCCCC2)CC1` (configuration not stated), the inhibition is inactive: 4.6%.

Consider `O=c1[nH]c2ccccc2n1C1CCN(C(c2cccc3ccccc23)c2nnnn2C2CCCC2)CC1` (configuration not stated), for which the inhibition is inactive: 18.7%.

As for `COc1cc(C(=O)NCC2(N(C)C)CCCCC2)ccc1OC(F)F`, the inhibition was inactive: 8.2%.

Turning to `CCOC(=O)N1CCC(Nc2cccc(C)c2)CC1`, the inhibition was inactive: 5.5%.

For `CCOc1ccc(C)cc1CN(CCCl)CCCl`, the inhibition was inactive: 9.6%.

`CC(C)(C)n1nnnc1C(c1ccccc1)N1CCC(n2c(=O)[nH]c3ccccc32)CC1` (configuration not stated): the inhibition is inactive: -7.2%.

For `O=C1CCN(Cc2ccccc2)CC1`, the inhibition was inactive: -12.4%.

As for `O=C(NCC1(N2CCCCC2)CCCCC1)c1ccc(F)cc1`, the inhibition was inactive: 0.2%.

Take `CCCCn1nnnc1C(c1cc2ccccc2o1)N1CCC(n2c(=O)[nH]c3ccccc32)CC1` (configuration not stated): the inhibition is inactive: 12.6%.

As for `O=P1(N(CCCl)CCCl)SCCCS1`, the inhibition was inactive: -2.8%.

In the case of `CCCCOc1ccc(C(=O)NCC2(N3CCOCC3)CCCCC2)cc1`, the inhibition is inactive: -17.3%.

`COc1ccc(NC2CCN(CCc3ccccc3)CC2)c(OC)c1`: the inhibition is inactive: -1.8%.

For `CCOC(=O)N1CCC(Nc2ccc(F)cc2)CC1`, the inhibition was inactive: -6.4%.
